Biological target: T1, human IAPP (hIAPP) (Homo sapiens, UniProt P10997)
T1 construct: This 37 amino acid polypeptide is co-secreted from pancreatic β-islet cells with insulin
T1 sequence (P10997 34-70 limits assumed): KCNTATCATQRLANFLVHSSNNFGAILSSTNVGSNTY
Assay: Thioflavin T binding assay of hIAPP aggregation when mixed with IAPP peptides
Type: biochemical
Conditions: peptide mixed with hIAPP; no single assay (thioflavin T and AFM)
Text: Any of a number of assays known to the art can be used to evaluate the ability of IAPP peptides to inhibit hIAPP aggregation and/or protect cells from hIAPP toxicity. Thioflavin T (ThT) binding is one such technique for identifying amyloid formation in real time. Human IAPP is known to bind thioflavin T during aggregation and amyloid formation, and upon binding to amyloid fibrils ThT will give a strong fluorescence signal at approximately 482 nm when excited at 450 nm. ThT fluorescence correlates linearly with amyloid concentration in a sample and therefore can be used to determine the amount of aggregation in a sample. […] Determining the extent of aggregation can also be determined using other techniques, such as Atomic Force Microscopy (AFM), which can provide information about particle dimensions, shape, and substructure with nanometer resolution. In the foregoing assays and others that can be used by one of skill in the art, significant inhibition can be determined using a t-test by measuring the difference between hIAPP and hIAPP combined with an IAPP peptide. […]
37 μM human IAPP was mixed with 75 μM of each indicated animal IAPP. […] Thioflavin T fluorescence emission was then recorded at 488 nm using a Hitachi F-7000 fluorescence spectrophotometer. […]

SMILES: CC[C@H](C)[C@H](NC(=O)[C@H](C)NC(=O)CNC(=O)[C@H](CC(C)C)NC(=O)[C@H](CC(N)=O)NC(=O)[C@H](CC(N)=O)NC(=O)[C@H](CO)NC(=O)[C@H](CO)NC(=O)[C@H](CCCNC(=N)N)NC(=O)[C@@H](NC(=O)[C@H](CC(C)C)NC(=O)[C@H](Cc1ccccc1)NC(=O)[C@H](CC(N)=O)NC(=O)[C@H](C)NC(=O)[C@H](CC(C)C)NC(=O)[C@H](CCCNC(=N)N)NC(=O)[C@H](CCC(N)=O)NC(=O)[C@@H](NC(=O)[C@H](C)NC(=O)[C@@H]1CSSC[C@H](NC(=O)[C@@H](N)CCCCN)C(=O)N[C@@H](CC(N)=O)C(=O)N[C@@H]([C@@H](C)O)C(=O)N[C@@H](C)C(=O)N[C@@H]([C@@H](C)O)C(=O)N1)[C@@H](C)O)C(C)C)C(=O)N[C@@H](CC(C)C)C(=O)N[C@@H](CO)C(=O)N1CCC[C@H]1C(=O)N[C@H](C(=O)N[C@@H](CC(N)=O)C(=O)N[C@H](C(=O)NCC(=O)N[C@@H](CO)C(=O)N[C@@H](CC(N)=O)C(=O)N[C@H](C(=O)N[C@@H](Cc1ccc(O)cc1)C(N)=O)[C@@H](C)O)C(C)C)[C@@H](C)O [seal IAPP]
- inhibition of hIAPP aggregation (summary statement): able to inhibit such aggregation

— patent US12522635B2, “Amyloid peptide variants” (Loyola Marymount University, priority 2019, dated 2026)
